Here are results for 2 compounds from publication PMC6270569, “Purification, Partial Characterization and Immobilization of a Mannose-Specific Lectin from Seeds of Dioclea lasiophylla Mart” (2013).

The chains behind the UniProt entries cited, without tags or fusion partners. Residues count along the entry.
UniProt C0HK27, 163-280 limits assumed: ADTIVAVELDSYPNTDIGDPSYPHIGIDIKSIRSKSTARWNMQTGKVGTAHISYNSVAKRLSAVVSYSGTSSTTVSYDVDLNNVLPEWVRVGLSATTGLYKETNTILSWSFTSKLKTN
UniProt C0HK27, 29-147 limits assumed: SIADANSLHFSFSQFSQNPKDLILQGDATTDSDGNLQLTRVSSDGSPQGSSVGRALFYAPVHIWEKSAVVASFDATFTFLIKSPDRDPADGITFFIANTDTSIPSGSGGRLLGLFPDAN

In brackets after ≈: the same amount, converted by molar mass.

The target of this experiment is DlyL (Dioclea lasiophylla lectin) (Dioclea lasiophylla, UniProt C0HK27). In words: inhibition of hemagglutination (rabbit erythrocytes, serial dilution). The note with it: 150 mM NaCl; 32 HU lectin; minimum inhibitory concentration; carbohydrate recognition site.

For the compound `OC[C@H]1OC(O)[C@@H](O)[C@@H](O)[C@@H]1O` (some centres unmarked), the “MIC *” value came out at 25 mM (≈ 4500 µg/mL).

With `CO[C@H]1O[C@H](CO)[C@@H](O)[C@H](O)[C@@H]1O`, the “MIC *” value was 6.25 mM (≈ 1210 µg/mL).
